# Experimental data reported in PubChem BioAssay AID2189 (The Scripps Research Institute Molecular Screening Center, 2009).
# The entries are a selection whose mix differs from that of the whole data set. The source made the active and inactive calls. Rule as the data show it: active = inhibition above about 4.9%; inactive = the rest.
# Test system: metallo-beta-lactamase IMP-1 (Pseudomonas aeruginosa)
# Assay: IMP-1 metallo-beta-lactamase inhibitors, confirmation, biochemical, epi-absorbance, hits shared with VIM-2 screen (AID 2189);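 also: 0% = enzyme with vehicle and 100% = vehicle without enzyme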
# Conditions: purified IMP-1 enzyme, absorbance substrate hydrolysis; at 5.6 µM; stronger effect = higher value
smiles,measurement,value
Nc1cccc2c([As](=O)(O)O)cccc12,inhibition,inactive: 3.32%
